Experimental data reported in article PMC5620609 (Pharmaceuticals, 2017).
Where two headings read alike, the source gives them in different places.

Tests used:
[1] = system: NCI 60 cell line panel; test: NCI 60 cell line panel, allocation of cell lines by growth inhibition at 10 µM; assay type: cell-based, human; settings: estimate
Text: Details of the NCI 60 One Dose Screen are well known and available online.

[2] = mice; IV; 3 consecutive days per week for 3 weeks
[3] = system: HL-60 human leukemia (TP53 null) xenograft; assay type: in vivo
Method: (§1) Drugs were administered IV for 3 consecutive days a week for 3 weeks. HL-60 is a human leukemia cell line (TP53 null) that is part of the NCI 60 cell line panel and can be grown in nude mice.
(§2) First, 10^7 tumor cells from culture in Matrigel™ of HL-60 human leukemia or LoVo colon cancer were implanted subcutaneously in the flank of 1.75-fold the number of NCr-nu/nu mice required for the study. Study initiation began when the required number of mice had tumors of approximately: • 100 to 250 mm^3 (target group mean tumor volume of approximately 175 mm^3) for the first set of studies. • 14 to 63 mm^3 (target group mean tumor weight of approximately 30 mm^3) for the second set of studies.
(§3) Mice with tumors in the proper volume range were arbitrarily assigned to groups. Mice received test article on 3 consecutive days per week for 3 weeks. Mice were observed daily for mortality and moribundity with weights and the tumor measurements taken twice weekly. Tumor volume was determined using the formula for an ellipsoid sphere: Length × Width^2/2 = Volume (mm^3). The experiments were scheduled to last for 60 days from the day of tumor implant. Any animal whose weight decreased more than 30% from the weight on the first day of treatment or whose tumor reached 4000 mm^3 in volume, ulcerated or sloughed off, or was moribund was euthanized prior to study termination.

[4] = system: LoVo colon cancer (TP53 WT) xenograft; assay type: in vivo; settings: LoVo first study; NUC013 5.8 mg/kg IV
Method: as §1, §2, §3

Nc1ncn([C@@H]2O[C@H](CO)[C@@H](O)C2(F)F)c(=O)n1 [NUC013, 5-aza-2′,2′-difluroro deoxycytidine]
mean GI50 relative to decitabine (fold lower) [1]: ≤ 10 fold
tolerability at repeat doses of up to 120 mg/kg [2]: without evidence of weight loss or death
hazard ratio (HR) vs saline ([3]; HL-60 first study, NUC013 5.8 mg/kg IV): 0.59
hazard ratio (HR) vs saline ([3]; HL-60 second study, NUC013 20 mg/kg IV): 0.26
hazard ratio (HR) vs saline [4]: 1.64
